For the assay, the target named is Cholinesterase (Homo sapiens, UniProt P06276). The experiment in a line: Inhibition of human plasma BChE pretreated for 30 mins by Ellman technique. In kind it is cell-free.

Chains of the proteins cited; added tags and fusions are not shown.
UniProt P06276, whole entry: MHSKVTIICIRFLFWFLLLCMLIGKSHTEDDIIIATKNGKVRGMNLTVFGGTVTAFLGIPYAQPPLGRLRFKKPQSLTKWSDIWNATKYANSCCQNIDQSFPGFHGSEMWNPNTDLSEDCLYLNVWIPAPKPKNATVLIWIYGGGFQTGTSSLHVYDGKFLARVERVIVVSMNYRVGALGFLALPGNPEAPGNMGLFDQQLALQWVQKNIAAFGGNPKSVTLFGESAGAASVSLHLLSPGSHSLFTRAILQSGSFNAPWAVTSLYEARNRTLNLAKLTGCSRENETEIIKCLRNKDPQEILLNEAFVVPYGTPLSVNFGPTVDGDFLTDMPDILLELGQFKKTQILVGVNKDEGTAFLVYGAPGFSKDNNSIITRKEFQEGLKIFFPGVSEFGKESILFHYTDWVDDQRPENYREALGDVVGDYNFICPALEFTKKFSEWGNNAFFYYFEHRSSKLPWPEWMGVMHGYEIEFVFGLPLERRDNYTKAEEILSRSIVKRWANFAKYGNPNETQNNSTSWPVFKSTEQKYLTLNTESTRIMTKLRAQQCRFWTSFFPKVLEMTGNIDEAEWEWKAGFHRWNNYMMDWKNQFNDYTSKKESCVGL

Our source for the IC50 values is ChEMBL document CHEMBL1177652 (Bioorg Med Chem, 2010).

The term IC50 denotes the point on the concentration scale where inhibition reaches its midpoint. Consider `CC(C)c1ccc(NC(=O)Oc2ccc3c(c2)[C@]2(C)CCN(C)C2N3C)cc1` (stereo partly specified), for which the IC50 was found to be 51 nM.
